Measurements reported in patent US20230398228A1, “ERIBULIN-BASED ANTIBODY-DRUG CONJUGATES AND METHODS OF USE” (EISAI R&D MANAGEMENT CO., LTD., priority 2016, published 2023).
Where two headings read alike, the source gives them in different places.

Test system: NCI-H2110 xenograft
Conditions: for tumor volume, group MEAN: MORAb-003-0285 5 mg/kg

## MORAb-003-PEG-pAB-duostatin 3 [M-0285]
5 mg/kg single i.v. dose, day 17 tumor volumes
  tumor growth inhibition (TGI): 89.7%
Day 0 post randomization
  tumor volume, group MEAN: 170.8 mm^3
Day 3 post randomization
  tumor volume, group MEAN: 231.2 mm^3
Day 5 post randomization
  tumor volume, group MEAN: 145.2 mm^3
Day 6 post randomization
  tumor volume, group MEAN: 170.2 mm^3
Day 7 post randomization
  tumor volume, group MEAN: 178.6 mm^3
Day 10 post randomization
  tumor volume, group MEAN: 140.2 mm^3
Day 12 post randomization
  tumor volume, group MEAN: 130 mm^3
Day 14 post randomization
  tumor volume, group MEAN: 123.4 mm^3
Day 17 post randomization
  tumor volume, group MEAN: 162.6 mm^3
Day 19 post randomization
  tumor volume, group MEAN: 212.4 mm^3
Day 24 post randomization
  tumor volume, group MEAN: 538.4 mm^3
Day 26 post randomization
  tumor volume, group MEAN: 690.8 mm^3
Day 28 post randomization
  tumor volume, group MEAN: 842.6 mm^3
Day 31 post randomization
  tumor volume, group MEAN: 1173.2 mm^3
